# Source: EP4847511A1, “COMPOUND WITH TRICYCLIC STRUCTURE, PHARMACEUTICAL COMPOSITION THEREOF AND USE THEREOF” (dated 2026)
# Sequences of proteins named here, by UniProt entry; tags and fusion partners are left off. A change or cut given only in a name is not applied to a line headed by its entry.
# UniProt P42336, whole entry: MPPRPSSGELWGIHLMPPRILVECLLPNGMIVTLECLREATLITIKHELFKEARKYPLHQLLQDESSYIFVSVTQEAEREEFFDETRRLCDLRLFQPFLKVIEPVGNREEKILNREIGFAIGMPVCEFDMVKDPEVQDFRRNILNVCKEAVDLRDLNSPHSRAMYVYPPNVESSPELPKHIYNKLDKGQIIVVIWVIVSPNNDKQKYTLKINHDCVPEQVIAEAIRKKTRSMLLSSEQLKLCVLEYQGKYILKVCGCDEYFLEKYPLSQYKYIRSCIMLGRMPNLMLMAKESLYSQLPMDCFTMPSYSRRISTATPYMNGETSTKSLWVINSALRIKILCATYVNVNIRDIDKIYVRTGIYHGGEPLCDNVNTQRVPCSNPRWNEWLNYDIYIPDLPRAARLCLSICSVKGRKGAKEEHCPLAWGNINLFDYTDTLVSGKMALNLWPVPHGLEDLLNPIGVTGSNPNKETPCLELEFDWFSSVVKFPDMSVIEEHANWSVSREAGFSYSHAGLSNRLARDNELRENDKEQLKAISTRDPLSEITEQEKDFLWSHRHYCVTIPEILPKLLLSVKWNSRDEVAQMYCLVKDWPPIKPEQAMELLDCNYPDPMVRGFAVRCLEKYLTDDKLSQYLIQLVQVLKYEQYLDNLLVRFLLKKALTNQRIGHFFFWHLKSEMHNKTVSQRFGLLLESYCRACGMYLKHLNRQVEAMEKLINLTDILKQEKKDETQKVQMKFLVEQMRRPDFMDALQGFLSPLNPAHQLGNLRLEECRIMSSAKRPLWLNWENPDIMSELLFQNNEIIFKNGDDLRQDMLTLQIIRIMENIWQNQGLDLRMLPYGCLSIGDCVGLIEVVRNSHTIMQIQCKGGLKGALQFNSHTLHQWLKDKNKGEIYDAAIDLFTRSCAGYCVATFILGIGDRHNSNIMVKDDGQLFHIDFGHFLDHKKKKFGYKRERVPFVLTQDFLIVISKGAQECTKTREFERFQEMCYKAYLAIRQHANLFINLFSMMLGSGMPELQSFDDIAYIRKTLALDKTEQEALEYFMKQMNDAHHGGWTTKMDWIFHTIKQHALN
# UniProt P42336, whole entry H1047R: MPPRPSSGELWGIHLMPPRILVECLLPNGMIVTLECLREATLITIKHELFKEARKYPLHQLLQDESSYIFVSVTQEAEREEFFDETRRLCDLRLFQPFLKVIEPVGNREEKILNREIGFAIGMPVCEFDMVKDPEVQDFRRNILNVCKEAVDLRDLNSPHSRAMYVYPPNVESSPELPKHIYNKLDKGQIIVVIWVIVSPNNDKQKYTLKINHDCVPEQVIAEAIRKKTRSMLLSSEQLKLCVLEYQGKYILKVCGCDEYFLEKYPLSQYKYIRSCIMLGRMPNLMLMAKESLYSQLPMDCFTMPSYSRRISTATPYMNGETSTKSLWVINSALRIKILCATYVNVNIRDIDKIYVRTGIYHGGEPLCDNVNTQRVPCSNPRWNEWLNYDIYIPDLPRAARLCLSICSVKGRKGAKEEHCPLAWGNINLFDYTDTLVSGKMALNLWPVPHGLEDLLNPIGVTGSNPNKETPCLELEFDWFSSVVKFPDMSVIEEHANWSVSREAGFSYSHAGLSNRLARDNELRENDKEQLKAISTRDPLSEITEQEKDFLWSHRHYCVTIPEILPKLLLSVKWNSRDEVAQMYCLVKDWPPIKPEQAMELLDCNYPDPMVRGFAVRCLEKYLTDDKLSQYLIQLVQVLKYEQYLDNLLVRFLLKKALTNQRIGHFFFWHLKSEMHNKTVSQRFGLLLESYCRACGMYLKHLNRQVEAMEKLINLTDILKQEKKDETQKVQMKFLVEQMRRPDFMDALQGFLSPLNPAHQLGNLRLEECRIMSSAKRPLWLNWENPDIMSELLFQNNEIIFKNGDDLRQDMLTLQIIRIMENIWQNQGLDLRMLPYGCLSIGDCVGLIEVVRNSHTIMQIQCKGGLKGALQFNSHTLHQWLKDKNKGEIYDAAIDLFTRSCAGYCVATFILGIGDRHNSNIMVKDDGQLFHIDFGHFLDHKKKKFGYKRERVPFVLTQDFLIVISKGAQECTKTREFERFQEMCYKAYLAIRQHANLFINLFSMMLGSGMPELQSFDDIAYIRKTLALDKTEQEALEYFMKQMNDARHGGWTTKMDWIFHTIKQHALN
# UniProt P27986, whole entry partner: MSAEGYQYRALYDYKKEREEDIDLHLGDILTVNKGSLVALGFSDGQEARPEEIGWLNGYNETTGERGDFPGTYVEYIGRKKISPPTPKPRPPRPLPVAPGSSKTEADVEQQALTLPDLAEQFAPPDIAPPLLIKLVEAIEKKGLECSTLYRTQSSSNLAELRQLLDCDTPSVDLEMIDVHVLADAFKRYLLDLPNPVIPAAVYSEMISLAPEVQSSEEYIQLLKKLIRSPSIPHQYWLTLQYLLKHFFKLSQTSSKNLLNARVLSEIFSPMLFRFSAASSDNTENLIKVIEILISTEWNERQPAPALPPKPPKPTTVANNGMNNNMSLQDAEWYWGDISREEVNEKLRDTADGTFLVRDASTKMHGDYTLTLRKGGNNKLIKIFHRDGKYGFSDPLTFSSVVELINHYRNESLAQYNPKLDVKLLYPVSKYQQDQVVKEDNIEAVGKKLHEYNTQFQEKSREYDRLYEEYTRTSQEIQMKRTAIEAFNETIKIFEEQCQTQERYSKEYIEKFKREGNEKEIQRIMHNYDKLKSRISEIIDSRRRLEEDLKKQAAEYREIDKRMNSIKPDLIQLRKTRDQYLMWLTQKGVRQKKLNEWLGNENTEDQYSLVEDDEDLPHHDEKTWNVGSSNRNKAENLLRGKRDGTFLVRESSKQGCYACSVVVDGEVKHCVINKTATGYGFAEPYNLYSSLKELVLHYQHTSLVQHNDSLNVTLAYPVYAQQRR
# pIC50: −log10 of the molar value.
# Key:
# [1] = target: PI3Kα (Homo sapiens, UniProt P42336); assay: ADP-Glo Kinase Assay, enzyme activity inhibition of PI3Kα; conditions: read-out: PI3Kα IC50, ATP 25µM, PIP2 50µg/mL, kinase PI3Kα 0.15µg/mL, room temperature 1 hour
# Procedure: (§1) Effect Example IC50 of PI3Kα and PI3KαH1047R enzyme activity inhibition evaluation assay
# (§2) The ADP-Glo Kinase Assay Kit was used for the experiments. The following buffer solutions were prepared: 50 mM HEPES, pH 7.5, 3 mM MgCl2, 1 mM EGTA, 100 mM NaCl, 0.03% CHAPS, 2 mM DTT. The tested compound samples were dissolved in DMSO and added to the screening system at a certain starting concentration of, for example, 10 µM, diluted 3-fold, while setting a DMSO control and an unkinase control. The optimal concentrations of PI3Kα, PI3Kα H1047R, substrate (PIP2) and ATP were prepared with buffers. The enzyme reaction system included: buffer, ATP 25µM, kinase substrate (PIP2, 50µg/mL), kinase PI3Kα (0.15µg/mL), PI3Kδ H1047R (0.05µg/mL), etc. The reaction system was reacted at room temperature for 1 hour, then terminated by adding a terminal reagent (ADP-Glo reagent, 5µL), and the ADP content in the system was detected using a detection reagent (Kinase Detection Reagent, 10µL). Signal data was collected using the Envision instrument. Calculated the % inhibition according to the following formula: % inhibition = (DMSO control signal value - sample signal value)/ (DMSO control signal value - unkinase control signal value). Inhibition curves were plotted using the formula Y=Bottom + (Top-Bottom)/(1+(IC50/X)^HillSlope) to obtain IC50 values and the results are as shown in Table 1.
# (§3) Result + represents IC50 <= 250nM ++ represents 250 nM < IC50 < = 10µM +++ represents IC50 > 10 µM Table 1
# [2] = target: PI3Kα H1047R (Homo sapiens, UniProt P42336, H1047R); assay: ADP-Glo Kinase Assay, enzyme activity inhibition of PI3Kα H1047R; conditions: read-out: PI3KαH1047R IC50, ATP 25µM, PIP2 50µg/mL, kinase 0.05µg/mL, room temperature 1 hour
# Procedure: as §1, §2, §3
Compound,pIC50 [1],pIC50 [2]
N#Cc1c(-c2cc(NC(=O)c3cc(F)cc(C(F)(F)F)c3)c3c4c2CCN4C(=O)NC3c2cc(F)c(F)cc2Cl)ccc2ncnn12 (racemic),5.00 to 6.60,> 6.60
"Cn1nc2c(Cl)cc(NC(=O)c3cc(F)cc(C(F)(F)F)c3)c3c2c1C(=O)NC3c1cc(F)ccc1Cl (single isomer, unassigned)",5.00 to 6.60,> 6.60
"COc1cc(-c2cc(NC(=O)c3cc(F)cc(C(F)(F)F)c3)c3c4c2CCN4C(=O)NC3c2cc(Cl)ccc2Cl)c(C#N)n2ncnc12 (single isomer, unassigned) [Compound 49-p2]",5.00 to 6.60,> 6.60
Cn1nc2ccc(NC(=O)c3cc(F)cc(C(F)(F)F)c3)c3c2c1C(=O)NC3c1cc(F)c(Cl)cc1Cl (stereo not shown),5.00 to 6.60,
"Cn1nc2c(-c3ccccc3C#N)cc(NC(=O)c3cc(F)cc(C(F)(F)F)c3)c3c2c1C(=O)NC3c1cc(Cl)c(F)cc1Cl (single isomer, unassigned) [Compound 52-p1]",< 5.00,5.00 to 6.60
Cn1nc2c(F)cc(NC(=O)c3cc(F)cc(C(F)(F)F)c3)c3c2c1C(=O)NC3c1cc(F)ccc1Cl (stereo not shown),5.00 to 6.60,> 6.60
N#Cc1c(-c2cc(NC(=O)c3cc(F)cc(C(F)(F)F)c3)c3c4c2CCN4C(=O)NC3c2cc(F)ccc2Cl)ccc2nc(N)nn12 (racemic),5.00 to 6.60,> 6.60
Cn1nc2ccc(NC(=O)c3cc(F)cc(C(F)(F)F)c3)c3c2c1C(=O)NC3c1c(Cl)ccc(F)c1F (stereo not shown),5.00 to 6.60,> 6.60
N#Cc1n[nH]c2ccc(-c3cc(NC(=O)c4cc(F)cc(C(F)(F)F)c4)c4c5c3CCN5C(=O)NC4c3cc(F)ccc3Cl)cc12 (stereo not shown),< 5.00,5.00 to 6.60
O=C(Nc1cc(N2CCn3cnnc3C2)c2c3c1C(c1cc(F)ccc1Cl)NC(=O)N3CC2)c1cc(F)cc(C(F)(F)F)c1 (racemic),< 5.00,5.00 to 6.60
"Cn1nc2c(-c3ccccc3F)cc(NC(=O)c3cc(F)cc(C(F)(F)F)c3)c3c2c1C(=O)NC3c1cc(F)ccc1Cl (single isomer, unassigned) [Compound 50-p1]",5.00 to 6.60,5.00 to 6.60
"Cn1nc2c(-c3ccc4ncnn4c3C#N)cc(NC(=O)c3cc(F)cc(C(F)(F)F)c3)c3c2c1C(=O)NC3c1cc(Cl)c(F)cc1Cl (single isomer, unassigned)",5.00 to 6.60,> 6.60
N#Cc1cccc2[nH]nc(-c3cc(NC(=O)c4cc(F)cc(C(F)(F)F)c4)c4c5c3CCN5C(=O)NC4c3cc(F)ccc3Cl)c12 (stereo not shown),5.00 to 6.60,5.00 to 6.60
"N#Cc1c(-c2cc(NC(=O)c3cc(F)cc(C(F)(F)F)c3)c3c4c2CCN4C(=O)NC3c2cc(F)ccc2Cl)ccc2nc(N)nn12 (single isomer, unassigned) [Compound 20-p1]",5.00 to 6.60,> 6.60
"Cn1nc2c(-c3ccccc3F)cc(NC(=O)c3cc(F)cc(C(F)(F)F)c3)c3c2c1C(=O)NC3c1cc(F)ccc1Cl (single isomer, unassigned) [Compound 50-p2]",5.00 to 6.60,> 6.60
"N#Cc1c(-c2cc(NC(=O)c3cc(F)cc(C(F)(F)F)c3)c3c4c2CCN4C(=O)NC3c2cc(F)ccc2Cl)cc(N)c2ncnn12 (single isomer, unassigned) [Compound 15-p2]",5.00 to 6.60,> 6.60
Cc1cc(F)cc(C2NC(=O)c3c4c2c(NC(=O)c2cc(F)cc(C(F)(F)F)c2)ccc4nn3C)c1Cl (stereo not shown),5.00 to 6.60,> 6.60
O=C(Nc1cc(N2CCn3c(nnc3C(F)(F)F)C2)c2c3c1C(c1cc(F)ccc1Cl)NC(=O)N3CC2)c1cc(F)cc(C(F)(F)F)c1 (stereo not shown),< 5.00,5.00 to 6.60
"N#Cc1c(-c2cc(NC(=O)c3cc(F)cc(C(F)(F)F)c3)c3c4c2CCN4C(=O)NC3c2cc(F)ccc2Cl)cc(N)c2ncnn12 (single isomer, unassigned) [Compound 15-p1]",< 5.00,5.00 to 6.60
"COc1cc(-c2cc(NC(=O)c3cc(F)cc(C(F)(F)F)c3)c3c4c2CCN4C(=O)NC3c2cc(Cl)ccc2Cl)c(C#N)n2ncnc12 (single isomer, unassigned) [Compound 49-p1]",5.00 to 6.60,5.00 to 6.60
Cn1nc2ccc(NC(=O)c3cc(F)cc(C(F)(F)F)c3)c3c2c1C(=O)NC3c1cc(F)c(F)cc1Cl (stereo not shown),5.00 to 6.60,> 6.60

Compound,pIC50 [1],pIC50 [2]
"Nc1nc2ccc(-c3cc(NC(=O)c4cc(F)cc(C(F)(F)F)c4)c4c5c3CCN5C(=O)NC4c3cc(F)ccc3Cl)c(F)n2n1 (single isomer, unassigned) [Compound 45-p1]",5.00 to 6.60,> 6.60
N#Cc1c(-c2cc(NC(=O)c3cc(F)cc(C(F)(F)F)c3)c3c4c2CCN4C(=O)NC3c2cc(F)ccc2Cl)cc(N)c2ncnn12 (racemic),< 5.00,> 6.60
O=C(Nc1cc(-c2cnc3[nH]ncc3c2Cl)c2c3c1C(c1cc(F)ccc1Cl)NC(=O)N3CC2)c1cc(F)cc(C(F)(F)F)c1 (stereo not shown),5.00 to 6.60,5.00 to 6.60
"N#Cc1c(-c2cc(NC(=O)c3cc(F)cc(C(F)(F)F)c3)c3c4c2CCN4C(=O)NC3c2cc(F)ccc2Cl)ccc2nc(N)nn12 (single isomer, unassigned) [Compound 20-p2]",< 5.00,5.00 to 6.60
"N#Cc1ncccc1-c1cc(NC(=O)c2cc(F)cc(C(F)(F)F)c2)c2c3c1CCN3C(=O)NC2c1cc(Cl)ccc1Cl (single isomer, unassigned) [Compound 51-p1]",< 5.00,5.00 to 6.60
Cn1nc2c(-c3ccc4ncnn4c3N)cc(NC(=O)c3cc(F)cc(C(F)(F)F)c3)c3c2c1C(=O)NC3c1cc(F)ccc1Cl (stereo not shown),< 5.00,> 6.60
"N#Cc1ncccc1-c1cc(NC(=O)c2cc(F)cc(C(F)(F)F)c2)c2c3c1CCN3C(=O)NC2c1cc(Cl)c(F)cc1Cl (single isomer, unassigned) [Compound 1-p1]",5.00 to 6.60,> 6.60
"N#Cc1c(-c2cc(NC(=O)c3cc(F)cc(C(F)(F)F)c3)c3c4c2CCN4C(=O)NC3c2cc(F)c(F)cc2Cl)ccc2ncnn12 (single isomer, unassigned) [Compound 36-p2]",5.00 to 6.60,> 6.60
"N#Cc1c(-c2cc(NC(=O)c3cc(F)cc(C(F)(F)F)c3)c3c4c2CCN4C(=O)NC3c2cc(F)ccc2Cl)ccc2[nH]ncc12 (single isomer, unassigned) [Compound 28-p1]",< 5.00,5.00 to 6.60
N#Cc1c(-c2cc(NC(=O)c3cc(F)cc(C(F)(F)F)c3)c3c4c2CCN4C(=O)NC3c2cc(F)ccc2Cl)cnc2[nH]ncc12 (stereo not shown),5.00 to 6.60,> 6.60
Cn1nc2c(-c3ccc4[nH]ncc4c3F)cc(NC(=O)c3cc(F)cc(C(F)(F)F)c3)c3c2c1C(=O)NC3c1cc(F)ccc1Cl (stereo not shown),5.00 to 6.60,> 6.60
"N#Cc1c(-c2cc(NC(=O)c3cc(F)cc(C(F)(F)F)c3)c3c4c2CCN4C(=O)NC3c2cc(F)ccc2Cl)ccc2[nH]ncc12 (single isomer, unassigned) [Compound 28-p2]",5.00 to 6.60,
Cc1c(C(=O)Nc2cc(Br)c3c4c2C(c2cc(F)ccc2Cl)NC(=O)N4CC3)oc2c(F)cc(F)cc12 (stereo not shown),5.00 to 6.60,5.00 to 6.60
"N#Cc1c(-c2cc(NC(=O)c3cc(F)cc(C(F)(F)F)c3)c3c4c2CCN4C(=O)NC3c2cc(F)ccc2Cl)ccc2[nH]nc(F)c12 (single isomer, unassigned) [Compound 29-p2]",5.00 to 6.60,> 6.60
Cn1nc2c(-c3ccc4ncnn4c3C#N)cc(NC(=O)c3cc(F)cc(C(F)(F)F)c3)c3c2c1C(=O)NC3c1cc(Cl)c(F)cc1Cl (racemic),5.00 to 6.60,> 6.60
"N#Cc1c(-c2cc(NC(=O)c3cc(F)cc(C(F)(F)F)c3)c3c4c2CCN4C(=O)NC3c2cc(F)ccc2Cl)ccc2[nH]nc(F)c12 (single isomer, unassigned) [Compound 29-p1]",< 5.00,5.00 to 6.60
Cn1nc2c(NC3(C#N)CC3)cc(NC(=O)c3cc(F)cc(C(F)(F)F)c3)c3c2c1C(=O)NC3c1cc(F)ccc1Cl (stereo not shown),5.00 to 6.60,5.00 to 6.60
"N#Cc1ncccc1-c1cc(NC(=O)c2cc(F)cc(C(F)(F)F)c2)c2c3c1CCN3C(=O)NC2c1cc(Cl)ccc1Cl (single isomer, unassigned) [Compound 51-p2]",5.00 to 6.60,> 6.60
"O=C(Nc1cc(F)c2c3c1C(c1cc(Cl)ccc1Cl)NC(=O)N3CC2)c1cc(F)cc(C(F)(F)F)c1 (single isomer, unassigned) [Compound 48-p2]",5.00 to 6.60,5.00 to 6.60
"Cn1nc2c(-c3ccccc3C#N)cc(NC(=O)c3cc(F)cc(C(F)(F)F)c3)c3c2c1C(=O)NC3c1cc(Cl)c(F)cc1Cl (single isomer, unassigned) [Compound 52-p2]",5.00 to 6.60,> 6.60
Nc1nc2ccc(-c3cc(NC(=O)c4cc(F)cc(C(F)(F)F)c4)c4c5c3CCN5C(=O)NC4c3cc(F)ccc3Cl)c(Br)n2n1 (stereo not shown),5.00 to 6.60,> 6.60
